According to patent US11396531B2, “Antimicrobial peptides comprising epsilon lysine residues” (priority 2016, dated 2022):

Assays:
[1] = system: Vancomycin-resistant Enterococcus (VRE); settings: VRE (n = 21 strains), Table 5; for MIC90: 90% of strains susceptible; for MIC: range
Method: (§1) MIC of cationic polymers and polypeptide were tested in accordance with the Clinical and Laboratory Standards Institute (CLSI) guidelines against a panel of antibiotic-susceptible/-resistant bacteria, yeasts and fungal strains. Bacterial and yeast strains were cultured on tryptic soy agar (TSA) and Sabaroud dextrose agar (SDA) plates (Neogen Corporation, MI, USA) overnight respectively. Inocula in Mueller-Hinton broth (MHB) for bacteria and SD broth for C. albicans (Beckton Dickinson, MD, USA) were prepared at 0.5 McFarland. The suspensions were then diluted to a final concentration of 10^5 CFU/ml in a 96-well microtitre plate (SPL Life Sciences Co., Ltd, Korea). […] The antimicrobial activities were compared with topical antiseptic agents, BAK and CHX. A similar protocol was used to determine the MIC of εPL against antibiotic-resistant pathogens. MIC of the polymers and polypeptides against Fusarium strains was determined in full strength RPMI-1640 buffer. Fungal spores were recovered from a 5-day old culture on a potato dextrose agar and diluted to a concentration of 10^5 spores/ml in 0.9% saline solution. A further 50-fold dilution was done in RPMI-1640 buffer and 100 μl of the inoculum was added to 96 well plates containing an equal volume of test peptides at 2-fold serial dilutions. 200 μl of inoculum without any additives and buffer alone served as positive and negative controls, respectively. The plate was then incubated at 30° C. for 48 h. The absorbance value was measured at 600 nm as before and the lowest concentration of the peptide which inhibited 90% growth was reported. All MIC determinations were performed in duplicates.
(§2) MICs of polymers/antibiotics were determined using the microdilution method in 96 well microtitre plates (SPL Life Sciences Co., Ltd, Korea), following the guidelines of Clinical and Laboratory Standards Institute (CLSI) document M100-S18. Briefly, polymers (1-512 μg/ml) or antibiotics were dissolved in appropriate media (Mueller Hinton broth, MHB for bacteria; Sabaroud's Dextrose (SD) broth for yeasts and RPMI buffer for Fusarium strains) and 100 μl of this was then mixed with an equal volume of microbial inoculum (OD600=˜0.08) in the same media and shaken in a closed incubator.

A. baumannii = A. baumannii (n = 10), Table 5; for MIC90: 90% of strains susceptible; for MIC: range
Method: as §1, §2

E. cloacae complex = system: E. cloacae complex
Method: as §1, §2

C. tropicalis = C. tropicalis (n = 9), Table 5
Method: as §1, §2

[2] = system: Carbapenam-resistant Enterobacter strains (CRE); settings: CRE (n = 19 strains), Table 5; for MIC50: 50% of strains susceptible; for MIC: range
Method: as §1, §2

S. epidermidis 12228 = settings: S. epidermidis 12228, Table 5
Method: as §1, §2

B. subtilis ATCC 6633 = settings: B. subtilis ATCC 6633, Table 5
Method: as §1, §2

C. parapsilosis = settings: C. parpsilosis (n = 9), Table 5
Method: as §1, §2

B. cereus ATCC 11778 = settings: B. cereus ATCC 11778, Table 5
Method: as §1, §2

C. albicans = system: C. albicans
Method: as §1, §2

VRE 1002 = test: SYTOX green (SG) uptake assay and bacterial viability; format: cell-based, Enterococcus; settings: 1× and 2×MIC
Method: To discern the pore-forming ability of modified peptide in comparison with melittin, the SYTOX green (SG) uptake assay was performed upon exposure of the peptides and their bactericidal properties were determined. […] Therefore the fluorescence intensity is taken to be proportional to the degree of cell membrane disruption caused by test peptides.

[3] = system: primary human dermal fibroblasts (HDFs); test: MTS cytotoxicity assay; settings: for Cytotoxicity for primary human dermal fibroblasts: Table 5
Method: MTS ((3-(4,5-dimethylthiazol-2-yl)-5-(3-carboxymethoxyphenyl)-2-(4-sulfophenyl)-2H-tetrazolium)) assay and high content analysis (HCA) were performed to elucidate the effect of various polymers on metabolic activity and morphological parameters of cultured human dermal fibroblasts (hDF), respectively as described previously. The antineoplastic agent, nocodazole (5 μg/ml), served as the […] control whereas cells treated with PBS served as positive control. The average values from three independent triplicate experiments are reported. Cells were cultured in 96-well plates and scanned (16 randomly selected fields/well) using an automated microscope IN Cell Analyzer 2200 (GE Healthcare). The multi-parametric cytotoxicity bio-application module of the IN Cell Investigator software (GE Healthcare) was used in quantitative estimations and morphotypic analysis of acquired images, which were automatically converted into color-coded heatmaps using Spotrfire® software.
Human dermal fibroblast cells were seeded in 96-well plates (2×10^3 cells/well) and incubated for 24 h at 37° C. and 5% CO2. Cells were then treated with various concentrations of polymers or peptides (62.5 μg/ml-1 mg/ml. At the end of the treatment period (after 24 h), 20 or 50 μl of MTS tetrazolium solution was added into 96-well or 12-well plates and further incubated for 2 h at 37° C. Subsequently, the absorbance was measured at 490 nm using a microplate reader (Infinite M200 Pro, Tecan, Switzerland) and the relative cell viability was calculated. Each treatment was performed in two triplicates and reported.
The cytotoxicity of peptides and polymers were determined using CellTier 96® Aqueous One solution cell proliferation assay kit according to the manufacturer's instruction (Promega Corporation, Madison, Wis.). This assay evaluates mitochondrial function by measuring ability of viable cells to reduce MTS ((3-(4,5-dimethylthiazol-2-yl)-5-(3-carboxymethoxyphenyl)-2-(4-sulfophenyl)-2H-tetrazolium)) into a quantifiable […] formazan product. HDFs were seeded in 96-well plates (2×10^3 cells/well) and incubated for 24 h at 37° C. and 5% CO2. Cells were then treated with a concentrated stock solution of polymers (final concentration 62.5-2000 μg/ml in the well) or peptides (final concentration 4-1000 μg/ml in the well). After 24 h, 20 μl of MTS tetrazolium solution was added into 96-well well plates and further incubated for 2 h at 37° C. Subsequently, the absorbance was measured at 490 nm using a microplate reader (Infinite M200 Pro, Tecan, Switzerland) and the relative cell viability was calculated relative to untreated control (10 mM PBS, pH 7.0). Each treatment was performed in two triplicates and reported.

S. aureus or MRSA = format: cell-based, Staphylococcus aureus; settings: Table 4, range over 5 strains
Method: as §1, with “Korea). Polymers and polypeptides were added to the inoculum in 2-fold serial dilutions to give a range of concentrations from 2-1024 μg/ml.” for “Korea).”
as §2

P. aeruginosa = format: cell-based, Pseudomonas aeruginosa; settings: Table 4, range over 5 strains
Method: as §1, with “Korea). Polymers and polypeptides were added to the inoculum in 2-fold serial dilutions to give a range of concentrations from 2-1024 μg/ml.” for “Korea).”
as §2

[4] = Calcein dye leakage from mammalian model LUVs; settings: peptide:lipid ratio 0.0625
Method: To obtain an insight into the mechanism of membrane discrimination, large unilamellar vesicles (LUVs) which mimic the cytoplasmic membrane of mammalian (PC/Cholesterol) and microbial (PE:PG) cells were used. […] More dramatic results were observed when the experiments were carried out on PC/Cholesterol LUVs.

[5] = E. cloacae complex 6780, Table 5
[6] = E. cloacae complex 44095, Table 5

| Structure (SMILES) | MIC90 [1] | MIC [1] [µg/mL] | MIC90 (A. baumannii) | MIC (A. baumannii) [µg/mL] | MIC (E. cloacae complex; [5]) [µg/mL] | MIC (E. cloacae complex; [6]) [µg/mL] | MIC50 [2] | MIC [2] [µg/mL] | MIC (S. epidermidis 12228) [µg/mL] | MIC (B. subtilis ATCC 6633) [µg/mL] | MIC (B. cereus ATCC 11778) [µg/mL] | SG uptake compared with melittin (VRE 1002) | Cytotoxicity for primary human dermal fibroblasts [3] [µg/mL] | other results |
| --- | --- | --- | --- | --- | --- | --- | --- | --- | --- | --- | --- | --- | --- | --- |
| CC[C@H](C)[C@H](NC(=O)CN)C(=O)NCC(=O)N[C@@H](C)C(=O)N[C@H](C(=O)N[C@@H](CC(C)C)C(=O)NCCCC[C@H](N)C(=O)N[C@H](C(=O)N[C@@H](CC(C)C)C(=O)N[C@H](C(=O)N[C@H](C(=O)NCC(=O)N[C@@H](CC(C)C)C(=O)N1CCC[C@H]1C(=O)N[C@@H](C)C(=O)N[C@@H](CC(C)C)C(=O)N[C@H](C(=O)N[C@@H](CO)C(=O)N[C@@H](Cc1c[nH]c2ccccc12)C(=O)N[C@H](C(=O)N[C@@H](CCCCN)C(=O)N[C@@H](CCCNC(=N)N)C(=O)NCCCC[C@H](N)C(=O)N[C@@H](CCCNC(=N)N)C(=O)N[C@@H](CCC(N)=O)C(=O)N[C@@H](CCC(N)=O)C(N)=O)[C@@H](C)CC)[C@@H](C)CC)[C@@H](C)O)[C@@H](C)O)C(C)C)C(C)C [Peptide 6] | (MIC90 = 8) μg/ml | 4 to 16 | (MIC90 = 8) μg/ml | 4 to 8 | 16 (≈ 5.62 µM) | 8 (≈ 2.81 µM) | (MIC50 = 16) μg/ml | 4 to 128 | 8 (≈ 2.81 µM) | 16 (≈ 5.62 µM) | 8 (≈ 2.81 µM) | decreased SG uptake | 1000 | MIC (C. tropicalis): 2 to 32 µg/mL; MIC (C. parapsilosis): 8 to 64 µg/mL; MIC (C. albicans; C. albicans (n = 5), Table 5): 16 to 32 µg/mL |
| CC[C@H](C)[C@H](NC(=O)CN)C(=O)NCC(=O)N[C@@H](C)C(=O)N[C@H](C(=O)N[C@@H](CC(C)C)C(=O)NCCCC[C@H](N)C(=O)N[C@H](C(=O)N[C@@H](CC(C)C)C(=O)N[C@H](C(=O)N[C@H](C(=O)NCC(=O)N[C@@H](CC(C)C)C(=O)N1CCC[C@H]1C(=O)N[C@@H](C)C(=O)N[C@@H](CC(C)C)C(=O)N[C@H](C(=O)N[C@@H](CO)C(=O)N[C@@H](Cc1c[nH]c2ccccc12)C(=O)N[C@H](C(=O)NCCCC[C@H](N)C(=O)N[C@@H](CCCNC(=N)N)C(=O)N[C@@H](CCCCN)C(=O)N[C@@H](CCCNC(=N)N)C(=O)N[C@@H](CCC(N)=O)C(=O)N[C@@H](CCC(N)=O)C(N)=O)[C@@H](C)CC)[C@@H](C)CC)[C@@H](C)O)[C@@H](C)O)C(C)C)C(C)C [Peptide 5] | (MIC90 = 8) μg/ml | 4 to 16 | (MIC90 = 4) μg/ml | 2 to 4 | 8 (≈ 2.81 µM) | 8 (≈ 2.81 µM) | (MIC50 = 8) μg/ml | 4 to 64 | 16 (≈ 5.62 µM) | 16 (≈ 5.62 µM) | 32 (≈ 11.2 µM) | decreased SG uptake | 1000 | – |
| CC[C@H](C)[C@H](NC(=O)CN)C(=O)NCC(=O)N[C@@H](C)C(=O)N[C@H](C(=O)N[C@@H](CC(C)C)C(=O)N[C@@H](CCCCN)C(=O)N[C@H](C(=O)N[C@@H](CC(C)C)C(=O)N[C@H](C(=O)N[C@H](C(=O)NCC(=O)N[C@@H](CC(C)C)C(=O)N1CCC[C@H]1C(=O)N[C@@H](C)C(=O)N[C@@H](CC(C)C)C(=O)N[C@H](C(=O)N[C@@H](CO)C(=O)N[C@@H](Cc1c[nH]c2ccccc12)C(=O)N[C@H](C(=O)NCCCC[C@H](N)C(=O)N[C@@H](CCCNC(=N)N)C(=O)N[C@@H](CCCCN)C(=O)N[C@@H](CCCNC(=N)N)C(=O)N[C@@H](CCC(N)=O)C(=O)N[C@@H](CCC(N)=O)C(N)=O)[C@@H](C)CC)[C@@H](C)CC)[C@@H](C)O)[C@@H](C)O)C(C)C)C(C)C [Peptide 2] | – | – | – | – | – | – | – | – | – | – | – | – | – | MIC against C. albicans (n = 5) (C. albicans; Table 4, range over 5 strains): 4 to 8 µg/mL; Cytotoxicity (in μg/ml) for HDFs ([3]; Concentration at which complete cytotoxicity was observed in MTS and HCA): 32 µg/mL; MIC against S. aureus or MRSA (n = 5) (S. aureus or MRSA): 4 to 8 µg/mL; MIC against P. aeruginosa (n = 5) (P. aeruginosa): 4 to 16 µg/mL; dye leakage from PC/Cholesterol LUVs [4]: ~70% |

In brackets after ≈: the same amount, converted by molar mass. Like-named read-outs stand apart in the source and are kept apart here.
